Measurements as given in ChEMBL document CHEMBL6087457.

Sequences of proteins named here, by UniProt entry; tags and fusion partners are left off. A change or cut given only in a name is not applied to a line headed by its entry.
UniProt P53668: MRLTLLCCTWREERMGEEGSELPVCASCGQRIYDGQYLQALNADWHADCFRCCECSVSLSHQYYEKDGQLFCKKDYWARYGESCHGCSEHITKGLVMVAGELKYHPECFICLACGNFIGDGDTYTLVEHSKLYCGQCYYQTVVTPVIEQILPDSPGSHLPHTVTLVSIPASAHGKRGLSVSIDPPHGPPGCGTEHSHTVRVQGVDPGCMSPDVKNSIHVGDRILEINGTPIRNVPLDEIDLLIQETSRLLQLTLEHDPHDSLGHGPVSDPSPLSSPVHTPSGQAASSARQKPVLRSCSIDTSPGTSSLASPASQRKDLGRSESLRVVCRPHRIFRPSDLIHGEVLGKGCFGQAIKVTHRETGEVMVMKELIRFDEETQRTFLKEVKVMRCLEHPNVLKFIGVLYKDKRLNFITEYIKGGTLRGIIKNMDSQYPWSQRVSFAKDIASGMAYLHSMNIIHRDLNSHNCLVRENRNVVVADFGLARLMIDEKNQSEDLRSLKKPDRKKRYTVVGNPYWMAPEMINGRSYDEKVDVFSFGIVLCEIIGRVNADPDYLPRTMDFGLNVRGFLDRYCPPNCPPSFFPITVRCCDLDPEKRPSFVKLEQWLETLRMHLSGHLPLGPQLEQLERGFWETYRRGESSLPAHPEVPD

Legend:
[1] = biological target: LIM domain kinase 1 (Mus musculus) (UniProt P53668); assay: Ex vivo inhibition of LIMK in hippocampus of mouse assessed as reduction in p-cofilin level at 3 uM incubated for 30 mins by Western blot analysis; type: functional
In short: (§1)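 Acute hippocampal slices from P7–9 WT and Fmr1 KO mice, incubated with vehicle (DMSO) or 3 μM LIMK inhibitor. p-Cofilin and total cofilin measured by Western blot and expressed as a p-cofilin/cofilin ratio. n = 2–4 animals per group. Significance by one-way ANOVA with Dunnett's multiple comparisons test.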

[2] = biological target: LIM domain kinase 1 (Mus musculus) (UniProt P53668); assay: Ex vivo inhibition of LIMK in hippocampus of Fmr1 KO mouse model of FXS assessed as reduction in p-cofilin level at 3 uM incubated for 30 mins by Western blot analysis; type: functional; in short: as §1

## O=C(c1ccc(S(=O)(=O)Nc2ccccc2)cc1)N(Cc1ccc(NCCO)cc1)CC1CC1
[1]
  inhibition: Active
[2]
  inhibition: Active

The source made the active and inactive calls. The rule behind the calls is not given here.
